System: Lactococcus lactis subsp. lactis JCM5805 strain
Assay: Growth promoting effect, MRS medium, anaerobic cultivation (OD600)
Assay type: cell-based
Conditions: FIG. 1B
Experimental: A Lactococcus lactis subsp. lactis JCM5805 strain was used as the lactic acid coccus.
The bacteria were counted by measuring the OD600 (turbidity) of the medium using an absorbance meter (Biochrom GeneQuant 1300).
Measured values were expressed as mean±standard error. One-way analysis of variance was followed by Tukey's test, and cases where p<0.05 relative to the control group were evaluated as having a significant difference.

In the case of `O=C([O-])CCC(=O)C(=O)[O-].[Na+].[Na+]` [αKG2Na, disodium α-ketoglutarate], the “growth of the lactic acid coccus (OD600) as compared with the control” value (0.01% by mass) is reported as “tended to be promoted” and the “growth of the lactic acid coccus (OD600) as compared with the control” value (concentration of 0.1 to 4% by mass) is reported as “significantly promoted in a concentration-dependent manner”.
